The test addresses Induced myeloid leukemia cell differentiation protein Mcl-1 (Homo sapiens, UniProt Q07820). The test is described as follows: Inhibition of human N-terminal His8-tagged Mcl1 expressed in Escherichia coli BL21(DE3) assessed as inhibition of Fluorescein-labeled BID binding after 1 to 2 hrs by fluorescence polarization assay. On the technique in general: In fluorescence polarisation assays a small probe gives low polarisation when free and higher when bound to something large.

Protein sequences, listed by entry. Tags and fused reporters are not part of them.
UniProt Q07820, whole entry: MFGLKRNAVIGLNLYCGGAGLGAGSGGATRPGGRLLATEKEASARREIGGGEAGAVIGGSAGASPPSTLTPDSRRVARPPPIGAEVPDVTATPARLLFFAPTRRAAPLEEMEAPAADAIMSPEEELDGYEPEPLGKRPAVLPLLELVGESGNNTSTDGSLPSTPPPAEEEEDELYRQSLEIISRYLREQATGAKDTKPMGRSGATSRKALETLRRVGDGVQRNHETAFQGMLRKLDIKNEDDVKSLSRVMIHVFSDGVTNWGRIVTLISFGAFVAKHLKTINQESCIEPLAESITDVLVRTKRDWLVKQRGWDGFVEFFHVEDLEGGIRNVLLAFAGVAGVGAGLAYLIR

This passage reports IC50 results from ChEMBL document CHEMBL2157965, “Structure-based design of potent Bcl-2/Bcl-xL inhibitors with strong in vivo antitumor activity” (J Med Chem, 2012).

As usually defined, the IC50 is the point on the concentration scale where inhibition reaches its midpoint.

On to `CN(C)CC[C@H](CSc1ccccc1)Nc1ccc(S(=O)(=O)NC(=O)c2ccc(N3CCN(Cc4ccccc4-c4ccc(Cl)cc4)CC3)cc2)cc1[N+](=O)[O-]` [ABT 737], for which the IC50 is above 1000 nM.
